This is an account of results in patent US20100267775A1, “OXADIAZOLIDINEDIONE COMPOUND” (priority 2007, published 2010).

Chains of the proteins cited; added tags and fusions are not shown.
UniProt O14842, whole entry R211H: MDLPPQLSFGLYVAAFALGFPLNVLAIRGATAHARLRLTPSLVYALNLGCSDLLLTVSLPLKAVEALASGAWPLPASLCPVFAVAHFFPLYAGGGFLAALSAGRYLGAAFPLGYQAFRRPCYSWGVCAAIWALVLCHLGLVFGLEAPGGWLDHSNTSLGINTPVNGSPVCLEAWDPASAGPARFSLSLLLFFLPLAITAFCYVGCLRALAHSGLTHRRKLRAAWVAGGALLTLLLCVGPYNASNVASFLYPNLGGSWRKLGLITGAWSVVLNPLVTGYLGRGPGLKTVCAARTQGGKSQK

Each structure is given as a SMILES string.

One test concerns the target human GPR40 (Homo sapiens, UniProt O14842, R211H). Description: Measurement of GPR40 agonistic activity (intracellular calcium, FLIPR, CHO cell line expressing human GPR40). As to conditions: change in fluorescence intensity one minute after measurement, tested form: Na salt. From the text: Test Method 1: Measurement of GPR40 Agonistic Activity i) Cloning of Human GPR40
In accordance with procedures as described below, the full-length sequence of GPR40 was obtained by a polymerase chain reaction (PCR) to set human genomic DNA (Clontech) as a template.
Oligonucleotide which consists of a base sequence represented by SEQ ID NO. 1 was used as a forward primer, and oligonucleotide which consists of a base sequence represented by SEQ ID NO. 2 was used as a reverse primer. To each 5′ terminus of the forward primer and the reverse primer described above, a base sequence including the XbaI recognition site is attached. In the PCR, using Taq DNA polymerase (Ex Taq DNA polymerase; TAKARA BIO INC.), a cycle consisting of 94° C. (15 sec)/55° C. […]
The GPR40 agonistic activity was measured with fluctuation of the intracellular calcium concentration as an index by FLIPR (registered trademark, Molecular Devices Corporation). […]
A CHO cell line expressing human GPR40 was seeded with 6×10^3 per well to a 384-well black plate (Becton, Dickinson and Company), and cultivated in a CO2 incubator overnight. […] A reaction was initiated by 10 μl of dispensation, the fluctuation of the intracellular calcium concentration was measured by FLIPR. An EC50 value of the compound to be inspected was calculated from the dose-response curve of change in fluorescence intensity one minute after measurement.
(A change in cytosolic calcium serves as a functional read-out for many receptors and channels.)

The test system of a further test is normal mice. Put plainly: Single oral glucose tolerance test on normal mice. The format is in vivo. As to conditions: tested form: Na salt. The protocol: Test Method 3: Single Oral Glucose Tolerance Test on Normal Mice
The anti-hyperglycemic action after glycemic load of the compound to be inspected was examined using normal mice. Hereinafter, the test method will be described.
Male ICR mice which was preparedly reared for one week (6-week-old) was fasted overnight, and used as an animal to be inspected. A compound to be inspected was 0.5% methylcellulose suspension, and the suspension was orally administered 30 minutes before the glucose (2 g/kg) load. With regard to some compounds to be inspected, prior blood drawing was performed (0 min value), and blood glucose levels were measured at 5, 15, 30, 60 and 120 minutes later glucose load when the compound to be inspected was orally administered. A control group was given 0.5% methylcellulose. The evaluation was carried out in the following manner. (Evaluation 1) The reduction rate of blood glucose levels after glucose loading (%) with respect to the control group was calculated at a point of glucose load which is 30 minutes after the oral administration of 10 mg/kg of the compound to be inspected. […]
(Evaluation 2) The reduction rate of blood glucose levels after glucose loading (%) with respect to the control group was calculated at a point of glucose load which is 30 minutes after the oral administration of 10, 3, 1, 0.3 or 0.1 mg/kg of the compound to be inspected. […]

As for `Cc1cc(OCCO)cc(C)c1-c1cccc(COc2ccc(Cn3oc(=O)[nH]c3=O)cn2)c1`, the EC50 – broadly, the midpoint of the concentration-response curve – on human GPR40 was 94 nM. Also, the “Reduction rate of blood glucose level (%)” value in the test with normal mice (Evaluation 1: male ICR mice, 10 mg/kg oral 30 minutes before glucose (2 g/kg) load, with respect to control group) is given as 43%. Also, in the test with normal mice (Evaluation 2: minimum oral dose (10, 3, 1, 0.3 or 0.1 mg/kg) with reduction rate 20% or more or significant decrease vs control, 'Below' = lower doses not tested), the MED was 3 mg/kg.
